According to PMC9824012, “Exploring Antimicrobial Peptides Efficacy against Fire Blight (Erwinia amylovora)” (Plants, 2022):

Key:
[1] = system: Erwinia amylovora; assay: Spot test screening of AMPs on plates; format: cell-based, Erwinia amylovora strain PGL Z1; parameters: key to Spot test result at 1 mM / Spot test result at 500 µM / Spot test result at 250 µM / Spot test result at 100 µM / Spot test result at 50 µM / Spot test result at 25 µM / Spot test result at 12.5 µM: +: Clear plaque formation; -: no plaque formation
Method: (§1) The bacterial material consisted of E. amylovora strain PGL Z1, isolated in 2013 from pear in Apulia region (Italy), and Xanthomonas campestris pv. campestris strain CFBP 1710 (X. campestris), isolated in 1975 from Brassica oleracea var. botrytis in France, which was used as a control to investigate the bactericidal activity and action mode of AMPs against two different bacteria. The bacterial strains were cultured on yeast extract peptone glucose agar (YPGA) and broth (YPG) media, consisting of 0.5% yeast extract, 0.5% peptone, 1% glucose and 1.5% agar. E. amylovora and X. campestris cell suspensions were prepared in sterile distilled water and the suspensions were adjusted to an optical density at 600 nm (OD600) of 0.1, which corresponds approximately to 10^8 CFU/mL.
The nine AMPs were screened using the spot test to select those with the best antibacterial activity against E. amylovora. Briefly, 300 µL of E. amylovora suspension (10^8 CFU/mL) was poured into the plates and maintained at room temperature for 15 min. Subsequently, 5 μL from each peptide at different concentrations (1000, 500, 250, 100, 50, 25 and 12.5 μM) was spotted onto the surface of the plates, followed by overnight incubation at 25 °C. Sterile distilled water was spotted in the plates as a control.
Supplementary Table S1. Results of the spot tests for the nine antimicrobial peptides used against Erwinia
Ascaphin-8 GF-19 + + + + + - -
DASamP1 FF-13 + + + - - - -
DASamP2 IL-14 + + + + + - -
Lycotoxin I IL-25 + + + + - - -
Maculatin 1.3 GF-21 + + + - - - -
Piscidin 1 FG-22 + + + + + - -
BP178 KL-29 + + + + + + -
RIJK2 RV-12 + + + - - - -
+: Clear plaque formation; -: no plaque formation.

[2] = system: Erwinia amylovora; conditions: 24 h at 25 °C in YPG, three replicates
Method: as §1
Briefly, 20 µL from each concentration (50 and 250 µM) was mixed with 180 µL of E. amylovora suspension (YPG) and incubated at 25 °C for 24 h. Six OD600 nm measures were taken over 24 h using the NanoDrop™ One/OneC Microvolume UV-Vis Spectrophotometer (ThermoFisher Scientific, Waltham, MA, USA).

[3] = system: Erwinia amylovora; assay: Fluorescence microscopy LIVE/DEAD BacLight (SYTO9/PI); format: cell-based, Erwinia amylovora strain PGL Z1; conditions: 1 h; for % of viability: calculated from SYTO9 and PI counts
Method: The bactericidal activity of the selected peptides (GF19, FG22, IL14, and KL29) was assessed by a test contact for 24 h, as described (Section 2.3), coupled with v-qPCR assay using the PMAxx™ (Biotium, Rome, Italy). PMAxx™ is a photo-reactive dye that binds to DNA with high affinity; upon cell lysis, it covalently attaches to disrupted DNA that cannot be amplified by PCR. This unique feature makes PMAxx™ extremely useful in selective detection of bacterial cells with intact plasma membranes by qPCR. Briefly, after 24 h at 25 °C, 200 µL of the mixture was transferred to a new tube and treated with PMAxx at a final concentration of 7.5 μM. Subsequently, samples were incubated in the dark at room temperature for 8 min, followed by photoactivation for 15 min. Genomic DNA of all samples was extracted using the cetyltrimethylammonium bromide (CTAB) method. v-qPCR was carried out in a thermocycler apparatus (Bio-Rad CFX96, BioRad, Milan, Italy), using Ea-lsc primers and conditions reported in Laforest et al.. The v-qPCR cycles consisted of an initial denaturation step of 95 °C for 5 min; 45 cycles of 95 °C for 30 s and 60 °C for 30 s with fluorescence readings at each cycle. For the FM assay, aliquots of E. amylovora suspension were incubated with 50 and 250 μM of selected peptides for 1 h at room temperature. The same protocol was used for X. campestris at different concentrations (100, 50, 25, 12.5, 6.25, 2 μM) using KL29 peptide, known for its potent bactericidal activity against X. campestris. The LIVE/DEAD ®BacLight™ viability kit (ThermoFisher Scientific, Milan, Italy) was used according to the manufacturer’s recommendation to assess the integrity of bacteria cells treated with the peptides at 1 h post-infection (Stocks, 2004). Briefly, 9 μL of sample was mixed with 0.5 μL of SYTO9 and 0.5 μL of propidium iodide (PI) for 15 min at room temperature in the dark. Photomicrographs were taken with a Nikon E800 microscope using a fluorescein isothiocyanate (480/30 excitation filter, DM505 dichroic mirror, 535/40 emission filter) and tetramethyl rhodamine isocyanate (546/10 excitation filter, DM575 dichroic mirror, 590 emission filter) fluorescence filter sets.
Supplementary Table S2. The statistical analysis consisted of counting the coloured spo ts (green: SYTO9 and red: PI) in the different channels of 10 replicas for the two concentrations of each antimicrobial peptide and the relative percentages of viable cells is calculated.
250 µM 50 µM % of viability
(1 picture or pasted object on this page, not shown here)

[4] = system: Xanthomonas campestris pv. campestris; assay: as above; format: cell-based, Xanthomonas campestris pv. campestris strain CFBP 1710; conditions: KL29 at 100, 50, 25, 12.5, 6.25, 2 µM, 1 h
Method: The bactericidal activity of the selected peptides (GF19, FG22, IL14, and KL29) was assessed by a test contact for 24 h, as described (Section 2.3), coupled with v-qPCR assay using the PMAxx™ (Biotium, Rome, Italy). PMAxx™ is a photo-reactive dye that binds to DNA with high affinity; upon cell lysis, it covalently attaches to disrupted DNA that cannot be amplified by PCR. This unique feature makes PMAxx™ extremely useful in selective detection of bacterial cells with intact plasma membranes by qPCR. Briefly, after 24 h at 25 °C, 200 µL of the mixture was transferred to a new tube and treated with PMAxx at a final concentration of 7.5 μM. Subsequently, samples were incubated in the dark at room temperature for 8 min, followed by photoactivation for 15 min. […] The v-qPCR cycles consisted of an initial denaturation step of 95 °C for 5 min; 45 cycles of 95 °C for 30 s and 60 °C for 30 s with fluorescence readings at each cycle. […] Photomicrographs were taken with a Nikon E800 microscope using a fluorescein isothiocyanate (480/30 excitation filter, DM505 dichroic mirror, 535/40 emission filter) and tetramethyl rhodamine isocyanate (546/10 excitation filter, DM575 dichroic mirror, 590 emission filter) fluorescence filter sets.

[5] = system: Erwinia amylovora; assay: Transmission electron microscopy of treated cells; format: cell-based, Erwinia amylovora strain PGL Z1; conditions: 15 min at room temperature
Method: Aliquots of E. amylovora suspensions were incubated with the KL29 for 15 min at room temperature to investigate peptide antibacterial modes of action (lytic and non-lytic). E. amylovora suspensions treated with 0.5 mg/mL of streptomycin (bacteriostatic antibiotic), and ampicillin (bactericidal antibiotic) were used as controls. Preparations were observed under TEM (FEI MORGAGNI 282D, Hillsboro, OR, USA) by the dip method: the carbon coated copper/rhodium grids were incubated with treated and untreated bacterial suspension for 2 min, and then rinsed with 200 μL of distilled water. Negative staining was obtained by floating the grids on 200 μL of 0.5 % w/v UA-zero EM STAIN (Agar-Scientific Ltd., Stansted, UK) solution and observing them under the EM using an accelerating voltage of 80 kV.

[6] = system: Erwinia amylovora; assay: In vivo antibacterial activity on inoculated immature pear fruits; parameters: species or system Erwinia amylovora on pear fruits (cv. 'Recchia falsa'); conditions: immature pears, 6 days at 25 °C, eight replicates
Method: To evaluate the in vivo antibacterial activity of selected AMPs, immature pear fruits (cv. ‘Recchia falsa’) were inoculated with E. amylovora and AMPs were applied. Briefly, ten-week-old pears were disinfected by immersion in a 70% ethanol solution for 2 min and then rinsed 3 times in sterile distilled water. Disinfected fruits were pricked to approximately 5 mm deep, with a sterile micropipette tip and inoculated with 20 µL of E. amylovora suspension (10^8 CFU/mL). Once the fruits had absorbed the bacteria, two concentrations of peptides (50 and 250 µM) were used; 20 µL of the concentration was introduced into the inoculation site and incubated in a humid chamber at 25 °C for 6 days. Fruits inoculated with sterile water and with E. amylovora suspension were included as controls. The experiment consisted of eight replicates per treatment, and symptoms were recorded at 6 days post-infection. The symptoms developed in immature pears (i.e., necrosis or bacterial exudates) were evaluated by measuring the diameter of necrotic lesions. The data were then analyzed using variance analysis (ANOVA), followed by Duncan’s multiple range test (α = 0.05), using SPSS statistical software (version 24.0, IBM, Armonk, N.Y., USA). All data were presented as mean values ± standard deviation (SD).

[7] = system: immature pear fruits; format: in vivo, pear (cv. 'Recchia falsa'); conditions: 100 µL peptide at 50 and 250 µM, 5 days at room temperature, six fruits per peptide
Method: (§2) The possible toxicity of the selected peptides was evaluated using immature pear fruits (cv. ‘Recchia falsa’), and horse erythrocyte cells, respectively, as plant and animal cell models. Briefly, six fruits for each peptide were pricked to approximately 5 mm deep and inoculated with 100 µL of the corresponding peptide at 50 and 250 µM concentrations. Fruits were kept in a chamber at room temperature for 5 days and repeatedly examined for the development of lesions. The peptide toxicity was measured as lesion diameter. Erythrocytes from a horse blood sample (provided by the University of Bari, Department of Veterinary Medicine, Valenzano, Italy) were used for the hemolytic assay. The erythrocytes were challenged with AMPs at 50 and 250 µM for 3 h and their possible hemolytic activity was observed under light microscope.

[8] = system: horse erythrocyte cells; format: cell-based; conditions: peptide 50 and 250 µM, 3 h, light microscope
Method: as §2

CC[C@H](C)[C@H](NC(=O)CNC(=O)[C@H](C)NC(=O)[C@@H]1CCCN1C(=O)CNC(=O)[C@H](C)NC(=O)[C@H](CC(C)C)NC(=O)[C@H](Cc1ccc(O)cc1)NC(=O)[C@H](CCCCN)NC(=O)[C@H](CC(C)C)NC(=O)[C@@H](NC(=O)[C@H](CCCCN)NC(=O)[C@H](CCCCN)NC(=O)[C@H](Cc1ccccc1)NC(=O)[C@H](CC(C)C)NC(=O)[C@H](CCCCN)NC(=O)[C@@H](N)CCCCN)[C@@H](C)CC)C(=O)NCC(=O)N[C@@H](CCCCN)C(=O)N[C@@H](Cc1ccccc1)C(=O)N[C@@H](CC(C)C)C(=O)N[C@@H](Cc1c[nH]cn1)C(=O)N[C@@H](CO)C(=O)N[C@@H](C)C(=O)N[C@@H](CCCCN)C(=O)N[C@@H](CCCCN)C(=O)N[C@@H](CC(=O)O)C(=O)N[C@@H](CCC(=O)O)C(=O)N[C@@H](CC(C)C)C(=O)O [KL29, BP178]
Spot test result at 12.5 µM ([1]; 5 µL peptide at 12.5 µM spotted on plate with E. amylovora 10^8 CFU/mL, overnight at 25 °C): -
Spot test result at 25 µM ([1]; 5 µL peptide at 25 µM spotted on plate with E. amylovora 10^8 CFU/mL, overnight at 25 °C): +
Spot test result at 50 µM ([1]; 5 µL peptide at 50 µM spotted on plate with E. amylovora 10^8 CFU/mL, overnight at 25 °C): +
Spot test result at 100 µM ([1]; 5 µL peptide at 100 µM spotted on plate with E. amylovora 10^8 CFU/mL, overnight at 25 °C): +
Spot test result at 250 µM ([1]; 5 µL peptide at 250 µM spotted on plate with E. amylovora 10^8 CFU/mL, overnight at 25 °C): +
Spot test result at 500 µM ([1]; 5 µL peptide at 500 µM spotted on plate with E. amylovora 10^8 CFU/mL, overnight at 25 °C): +
Spot test result at 1 mM ([1]; 5 µL peptide at 1 mM spotted on plate with E. amylovora 10^8 CFU/mL, overnight at 25 °C): +
Spot test, killing of E. amylovora at 50 µM (in words) ([1]; peptide 50 µM): could kill E. amylovora
Inhibition of E. amylovora growth (OD600) ([2]; peptide 50 µM): ~73%
Inhibition of E. amylovora growth (OD600) ([2]; peptide 250 µM): inhibited all bacterial cell growth
Fluorescence observed in treated E. amylovora cells (in words) ([3]; peptide 50 µM): no green fluorescence
% of viability ([3]; peptide 50 µM): 0%
Fluorescence observed in treated E. amylovora cells (in words) ([3]; peptide 250 µM): green cells were observed
% of viability ([3]; peptide 250 µM): 9%
Lytic activity on X. campestris by fluorescence microscopy (in words) [4]: greater lytic activity at high peptide concentrations
TEM morphology of treated E. amylovora cells (in words) ([5]; peptide 50 µM): damaged cell walls and the decomposition of inner structures
TEM morphology of treated E. amylovora cells (in words) ([5]; peptide at high concentration (250 µM)): low permeabilization of the outer membrane, cytoplasmic condensation, and loss of interior appearance
Reduction of fire blight symptoms (necrotic lesion diameter) ([6]; 20 µL peptide at 50 µM into inoculation site): 74%
Reduction of fire blight symptoms (necrotic lesion diameter) ([6]; 20 µL peptide at 250 µM into inoculation site): 85%
Toxicity (hypersensitive or cytotoxic activity) on pear fruits (in words) [7]: no impact on animal or plant cells; also recorded: toxicologically safe for plant and animal cells
Toxicity (hemolytic or cytotoxic activity) on horse erythrocytes (in words) [8]: no impact on animal or plant cells; also recorded: toxicologically safe for plant and animal cells

Entries after “also recorded” stand apart in the source; their conditions may differ. Like-named read-outs stand apart in the source and are kept apart here.
